Test results: PMC10484922, “Discovery of a selective and biologically active low-molecular weight antagonist of human interleukin-1β” (Nature Communications, 2023)
Where two headings read alike, the source gives them in different places.

The chains behind the UniProt entries cited, without tags or fusion partners. Residues count along the entry.
UniProt P01584, 117-269: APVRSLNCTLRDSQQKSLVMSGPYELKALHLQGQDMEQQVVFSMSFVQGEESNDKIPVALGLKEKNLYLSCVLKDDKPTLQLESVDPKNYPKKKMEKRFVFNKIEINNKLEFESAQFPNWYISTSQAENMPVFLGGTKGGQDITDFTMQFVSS
UniProt P01584, 117-269 V163A: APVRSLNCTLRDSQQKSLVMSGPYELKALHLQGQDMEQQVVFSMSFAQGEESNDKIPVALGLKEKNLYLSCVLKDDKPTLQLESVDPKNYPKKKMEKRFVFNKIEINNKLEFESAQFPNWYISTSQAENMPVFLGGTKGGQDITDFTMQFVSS

What was measured:
IL-1β [1] = molecular target: T1, IL-1β (Homo sapiens, UniProt P01584); experiment: NMR titration with lineshape fitting, hIL-1β; format: binding; parameters: Mature hIL-1β was expressed in Escherichia coli; made in house; host or cells: Escherichia coli BL21 (DE3), pET17b
Description: ^1H–^13C- and ^1H–^15N-HMQC spectra were recorded on Bruker AVANCE 600 MHz and 800 MHz spectrometers equipped with TXI-cryocooled probeheads. In ligand binding experiments, protein concentrations were typically 50 μM in PBS, pH 7.4. Backbone assignments of hIL-1β in the ligand-bound state and unliganded state were obtained by a combination of a 3D triple resonance experiment HNCACB and a ^15N-edited NOESY spectrum, which were processed using TOPSPIN 3.2 and analyzed using CcpNmr AnalysisAssign 3.1.0[46]. ^15N-CEST experiments were run at weak B1 radiofrequency fields of 25 and 12.5 Hz on a Bruker AVANCE 800 MHz spectrometer with 113 increments and a total sweep width of 28 ppm in the pseudo-3D dimension. Peak intensities were extracted by fitting pseudo-Voigt lineshape models using peakipy (https://github.com/j-brady/peakipy). Fitted peak intensities were subsequently used to generate CEST profiles, and exchange parameters were fitted using ChemEx (https://github.com/gbouvignies/ChemEx).
(1 picture or pasted object on this page, not shown here)

IL-1β [2] = molecular target: T1, IL-1β; experiment: TR-FRET IL-1β/hIL-1R1 receptor displacement assay; format: biochemical
Description: After 1 h incubation at room temperature, hIL-1R1 (1–332; Alexa 647 labeled; 50 nM final concentration) and anti-His-Europium W1024 (Perkin Elmer; Cat.No. AD0401, 1 nM final concentration) were added to a final volume of 10 μl per well. After 1 h of incubation at room temperature, time-resolved fluorescence was measured at λexc = 320 ± 20 nm, λem = 620 ± 25 nm/665 ± 25 nm using a Pherastar FSX plate reader. All experiments were run in triplicates. The data provided a typical saturation-binding curve, and the IC50 values were calculated by fitting the results to the Hill equation using Prism 7.0 and the in-house software Helios.

hIL-1β^V47A = molecular target: T2, hIL-1β^V47A (Homo sapiens, UniProt P01584, V163A); experiment: NMR titration with lineshape fitting, hIL-1β V47A; format: binding; details: two-site exchange model
T2 construct: Mature hIL-1β^V47A was expressed with a C-terminal His6 tag; made in house; host or cells: E. coli

[3] = hIL-1β, 1:1 binding, read-out: KD by NMR lineshape fitting

Row | Compound | Kd (IL-1β [1]; [3]) [µM] | IC50 (IL-1β [2]) [µM] | Kd (hIL-1β^V47A) [µM] | Kd (IL-1β [1]; hIL-1β, read-out: KD, lineshape fitting of Leu60 Cδ1H3 resonance) [µM] | Kd (IL-1β [1]; initial value used in reporter assay, read-out: KD of the reporter from simulating concentration-dependent lineshapes) [µM]
1 | O=C1Nc2cc(C(F)(F)F)ccc2C1(O)c1cc(Cl)ccc1O (stereo not shown) [Compound 1] | 520 | > 200 |  |  | 
2 | O=C1Nc2cc(C(F)(F)F)ccc2[C@]1(O)c1cc(Cl)ccc1O [Compound (S)-1] | 287 | > 200 | 263 ± 40 | 324 ± 5 | 250
